In patent US8278415B2, “Dimeric high affinity EGFR constructs and uses thereof” (Centocor, Inc., priority 2006, dated 2012):

Test system: A431 cells
Experiment: FACS of P190-MMB constructs or cetuximab on A431 cells
Format: cell-based, human
Conditions: excess EGF
Text: In contrast, 190-MMB as the 4316 construct, binds EGFR and the presence of excess EGF promotes its binding.

cetuximab: neutralizing anti-EGFR monoclonal antibody [reference compound]
effect of EGF on binding to A431: reduced binding
